This note sets out measurements from patent US10898481B2 (priority 2018, dated 2021).

Amino acid sequences for entries named in this document (tags omitted). A change or cut given only in a name is not applied to a line headed by its entry.
UniProt P30542, whole entry: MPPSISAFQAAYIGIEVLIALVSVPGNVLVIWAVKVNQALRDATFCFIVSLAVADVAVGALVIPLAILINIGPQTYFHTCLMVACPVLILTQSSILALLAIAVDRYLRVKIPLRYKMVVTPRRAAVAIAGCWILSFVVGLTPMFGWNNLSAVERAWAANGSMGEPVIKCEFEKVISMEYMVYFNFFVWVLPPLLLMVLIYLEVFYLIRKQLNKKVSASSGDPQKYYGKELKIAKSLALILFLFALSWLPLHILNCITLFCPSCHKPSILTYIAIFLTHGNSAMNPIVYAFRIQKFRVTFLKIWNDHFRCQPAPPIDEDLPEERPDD
UniProt Q60613, whole entry: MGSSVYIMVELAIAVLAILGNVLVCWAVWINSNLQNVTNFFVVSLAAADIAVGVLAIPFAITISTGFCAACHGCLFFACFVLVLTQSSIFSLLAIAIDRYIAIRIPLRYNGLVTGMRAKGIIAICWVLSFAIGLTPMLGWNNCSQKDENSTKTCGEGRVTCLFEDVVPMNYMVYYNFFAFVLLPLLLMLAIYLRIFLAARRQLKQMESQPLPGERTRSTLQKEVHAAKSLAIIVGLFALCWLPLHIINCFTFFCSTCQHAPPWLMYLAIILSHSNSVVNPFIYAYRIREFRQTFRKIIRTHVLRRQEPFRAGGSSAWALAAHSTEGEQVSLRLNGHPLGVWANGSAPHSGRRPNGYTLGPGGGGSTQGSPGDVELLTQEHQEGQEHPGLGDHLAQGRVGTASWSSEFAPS
UniProt P29275: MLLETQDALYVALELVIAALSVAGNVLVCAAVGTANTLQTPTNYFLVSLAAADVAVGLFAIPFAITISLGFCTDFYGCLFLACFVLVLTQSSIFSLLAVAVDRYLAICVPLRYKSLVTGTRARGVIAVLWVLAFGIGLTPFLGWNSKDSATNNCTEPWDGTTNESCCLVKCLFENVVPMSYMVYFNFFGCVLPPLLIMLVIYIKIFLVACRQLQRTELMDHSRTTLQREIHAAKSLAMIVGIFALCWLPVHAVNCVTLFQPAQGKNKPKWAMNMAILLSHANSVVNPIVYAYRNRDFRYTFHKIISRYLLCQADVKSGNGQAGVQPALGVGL

One test addresses hA1 (Homo sapiens (Human), UniProt P30542). Kind of test: biochemical. To be noted: Binding Affinity (IC50 nM) hA1, hA1 membrane, [3H]-DPCPX. The text has this: (§1) The empty boxes in the tables below indicate data not collected yet.
In test [1] the target is hADORA1/CHO (hA1 expressing) cells (Homo sapiens (Human), UniProt P30542). Kind of test: cell-based. The following applies: 10 μM adenosine.
Another test has as its target hA2a/CHO (Homo sapiens (Human), UniProt P29274). Kind of test: cAMP inhibition assay in hA2a/CHO cells, 10 μM adenosine.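 Further: compounds added to cells 30 min ahead of adenosine, then a further 30 min at 37 °C with adenosine before cAMP detection.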 The test is classed as cell-based.
The next test concerns the target mA2a/CHO (Mus musculus (Mouse), UniProt Q60613). Kind of test: cAMP inhibition assay in mA2a/CHO cells, 10 μM adenosine.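 Further: compounds preincubated 30 min at 37 °C before the adenosine challenge, then 30 min further stimulation, readout after 60 min detection reagent incubation at room temperature in 384-well plates.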 Type of test: cell-based.
The target of another test is hA2b/CHO (Homo sapiens (Human), UniProt P29275). The experiment in a line: cAMP inhibition assay in hA2b/CHO cells, 10 μM adenosine.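 Further: cells exposed to compound 30 min at 37 °C, then stimulated with adenosine a further 30 min, cAMP read after 60 min at room temperature.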 The test is classed as cell-based.
The target in a further test is hA2a (Homo sapiens (Human), UniProt P29274). The experiment in a line: Radioligand binding to hA2a membrane with [3H]-CGS21680. The following applies: read-out: Binding Affinity (IC50 nM) hA2a.
From the text: as §1

Where [2] appears, read: FLIPR inhibition, read-out: cAMP & FLIPR IC50 (nM) hA1.
[3] abbreviates: read-out: cAMP & FLIPR IC50 (nM) hA2a.
Where [4] appears, read: read-out: cAMP & FLIPR IC50 (nM) mA2a.
Setting [5] is: cAMP & FLIPR IC50 (nM) hA1, FLIPR inhibition.
Where [6] appears, read: read-out: cAMP & FLIPR IC50 (nM) hA2b.

The structures appear in SMILES notation. Where two headings read alike, the source gives them in different places.

Usually IC50 stands for the concentration that gives 50% inhibition. For the compound `Cc1cnc2ccc(-c3nc(C(=O)NCC4CCCN4C)c(N)nc3-c3ncco3)cn12` (single isomer, unassigned) [Example 120], the IC50 at hA1 turned out to be 156 nM; in test [1] (setting [2]), 10000 nM.

On hA1, `Cc1cnc2ccc(-c3nc(C(=O)NCC4CCCN4C)c(N)nc3-c3ncco3)cn12` (single isomer, unassigned) [Example 121] displayed a half-inhibitory concentration (IC50) of 116 nM.

Take `Cc1cnc2ccc(-c3nc(C(=O)NCC4CCN(C)C4=O)c(N)nc3-c3ncco3)cn12` (single isomer, unassigned; isomer 1) [Example 216, 3-amino-N-((1-methyl-2-oxopyrrolidin-3-yl)methyl)-6-(3-methylimidazo[1,2-a]pyridin-6-yl)-5-(oxazol-2-yl)pyrazine-2-carboxamide (isomer 1)]: the IC50 is 5.1 nM on hA2a/CHO (setting [3]), 24 nM on mA2a/CHO (setting [4]), 799 nM in test [1] (setting [5]) and 282 nM on hA2b/CHO (setting [6]).

As to `Cc1cnc2ccc(-c3nc(C(=O)NCC4CCN(C)C4=O)c(N)nc3-c3ncco3)cn12` (single isomer, unassigned; isomer 2) [Example 222, 3-amino-N-((1-methyl-2-oxopyrrolidin-3-yl)methyl)-6-(3-methylimidazo[1,2-a]pyridin-6-yl)-5-(oxazol-2-yl) pyrazine-2-carboxamide (isomer 2)], the half-inhibitory concentration (IC50) at hA2a/CHO (setting [3]) was 9.6 nM; on mA2a/CHO (setting [4]), 43 nM; in test [1] (setting [5]), greater than 10000 nM; on hA2b/CHO (setting [6]) it was 2770 nM.

Consider `NCc1cnc2ccc(-c3nc(C(=O)NCc4ncccc4F)c(N)nc3-c3ncco3)cn12` [Cmpd. 198, 3-amino-6-(3-(aminomethyl)imidazo[1,2-a]pyridin-6-yl)-N-((3-fluoropyridin-2-yl)methyl)-5-(oxazol-2-yl)pyrazine-2-carboxamide], for which the half-maximal inhibitory concentration (IC50) at hA2a/CHO (setting [3]) turned out to be 3.6 nM; at mA2a/CHO (setting [4]), 31 nM; on hA2b/CHO (setting [6]), 38 nM.

For the compound `Cc1cnc2ccc(-c3nc(C(=O)NCc4ncccc4F)c(N)nc3N3CCOCC3)cn12` [Cmpd. 223, 3-amino-N-[(3-fluoropyridin-2-yl)methyl]-6-[3-methylimidazo[1,2-a]pyridin-6-yl]-5-(morpholin-4-yl)pyrazine-2-carboxamide], the IC50 at hA2a/CHO (setting [3]) is 9.9 nM; at mA2a/CHO (setting [4]), 132 nM; on hA2b/CHO (setting [6]) it was 525 nM.

As to `Cc1cnc2ccc(-c3nc(C(=O)NC[C@H]4CCCN4C)c(N)nc3-c3cccc(F)c3)cn12` [Cmpd. 231, (R)-3-amino-5-(3-fluorophenyl)-6-(3-methylimidazo[1,2-a]pyridin-6-yl)-N-((1-methylpyrrolidin-2-yl)methyl)pyrazine-2-carboxamide], in test [1] (setting [5]), the IC50 is 306 nM.

For `Cc1cnc2ccc(-c3nc(C(=O)N[C@@H](C)CC(=O)N(C)C)c(N)nc3-c3ncco3)cn12` [Cmpd. 234, (3 S)-3-[(3-amino-6-[3-methylimidazo[1,2-a]pyridin-6-yl]-5-(1,3-oxazol-2-yl)pyrazin-2-yl)formamido]-N,N-dimethylbutanamide], the half-inhibitory concentration (IC50) on hA2a/CHO (setting [3]) is 5.3 nM; in test [1] (setting [2]), 836 nM.

Turning to `Cc1cnc2ccc(-c3nc(C(=O)N[C@H](C)CC(=O)N(C)C)c(N)nc3-c3ncco3)cn12` [Cmpd. 236, (3R)-3-[(3-amino-6-[3-methylimidazo[1,2-a]pyridin-6-yl]-5-(1,3-oxazol-2-yl)pyrazin-2-yl)formamido]-N,N-dimethylbutanamide], the IC50 at hA2a/CHO (setting [3]) is 17 nM; in test [1] (setting [2]) it was greater than 10000 nM.

On to `Cc1cnc2ccc(-c3nc(CNC(=O)[C@H]4CCCN4C)c(N)nc3-c3ccc(F)c(F)c3)cn12` [Cmpd. 257, (2R)—N-[[3-amino-5-(3,4-difluorophenyl)-6-[3-methylimidazo[1,2-a]pyridin-6-yl]pyrazin-2-yl]methyl]-1-methylpyrrolidine-2-carboxamide], for which the IC50 in test [1] (setting [5]) is 20 nM.

Turning to `Cc1cnc2ccc(-c3nc(C(=O)NC[C@H]4CCCN4C)c(N)nc3-c3ccccc3)cn12` [Cmpd. 259, 3-amino-6-[3-methylimidazo[1,2-a]pyridin-6-yl]-N-[[(2R)-1-methylpyrrolidin-2-yl]methyl]-5-phenylpyrazine-2-carboxamide], inhibition in test [1] (setting [5]) was half-maximal at 47 nM (IC50).

The compound `Cc1cnc2ccc(-c3nc(C(=O)NC[C@H]4CCCN4C)c(N)nc3-c3ccc(F)c(F)c3)cn12` [Cmpd. 272, 3-amino-5-(3,4-difluorophenyl)-6-[3-methylimidazo[1,2-a]pyridin-6-yl]-N-[[(2R)-1-methylpyrrolidin-2-yl]methyl]pyrazine-2-carboxamide] returned an IC50 in test [1] (setting [5]) of 338 nM.

For the compound `Cn1cc(-c2nc(C(=O)NCc3ncccc3OC(F)F)c(N)nc2-c2ncco2)ccc1=O` [Example 19, 3-amino-N-[[3-(difluoromethoxy)pyridin-2-yl]methyl]-6-(1-methyl-6-oxo-1,6-dihydropyridin-3-yl)-5-(1,3-oxazol-2-yl)pyrazine-2-carboxamide], the results for the half-inhibitory concentration (IC50) on mA2a/CHO (setting [4]) and at hA2b/CHO (setting [6]) were 8.8 nM and 51 nM, respectively.

Take `Nc1nc(-c2ncco2)c(-c2ccc3[nH]cnc3c2)nc1C(=O)NCc1ncccc1F` [Example 47, 3-amino-6-(1H-1,3-benzodiazol-5-yl)-N-[(3-fluoropyridin-2-yl)methyl]-5-(1,3-oxazol-2-yl)pyrazine-2-carboxamide]: the IC50 was 2.6 nM at hA2a, 57 nM at hA2a/CHO (setting [3]), 3260 nM at mA2a/CHO (setting [4]) and 141 nM at hA2b/CHO (setting [6]).

Take `Cn1cc(-c2nc(C(=O)NCc3nc(N)ccc3F)c(N)nc2-c2ncco2)ccc1=O` [Example 49, 3-amino-N-((6-amino-3-fluoropyridin-2-yl)methyl)-6-(1-methyl-6-oxo-1,6-dihydropyridin-3-yl)-5-(oxazol-2-yl)pyrazine-2-carboxamide]: the IC50 turned out to be 5.3 nM on hA2a, 138 nM against hA2a/CHO (cAMP & FLIPR IC50 (nM) hA2a), 413 nM on mA2a/CHO (cAMP & FLIPR IC50 (nM) mA2a) and 309 nM at hA2b/CHO (cAMP & FLIPR IC50 (nM) hA2b).

Consider `Cc1cc(-c2nc(C(=O)NCc3ccccc3OC(F)(F)F)c(N)nc2-c2ccc(F)cc2)cc(C)n1` [Example 65, 3-amino-6-(2,6-dimethylpyridin-4-yl)-5-(4-fluorophenyl)-N-(2-(trifluoromethoxy)benzyl)pyrazine-2-carboxamide], for which the IC50 on hA2b/CHO (setting [6]) is no less than 10000 nM.

Take `Cc1cnc2ccc(-c3nc(C(=O)NCc4ncccc4F)c(N)nc3-c3ncco3)cn12` [Example 101, 3-amino-N-((3-fluoropyridin-2-yl)methyl)-6-(3-methylimidazo[1,2-a]pyridin-6-yl)-5-(oxazol-2-yl)pyrazine-2-carboxamide]: the half-inhibitory concentration (IC50) at hA2a worked out at 2.4 nM; at hA2a/CHO (setting [3]) it was 0.1 nM; on mA2a/CHO (setting [4]), 0.4 nM; at hA2b/CHO (setting [6]), 1.4 nM.

As to `Nc1nc(-n2nccn2)c(-c2ccc3nccn3c2)nc1C(=O)NCc1ncccc1F` [Example 104, 3-amino-N-[(3-fluoropyridin-2-yl)methyl]-6-[imidazo[1,2-a]pyridin-6-yl]-5-(2H-1,2,3-triazol-2-yl)pyrazine-2-carboxamide], the 50% inhibitory concentration (IC50) is 6.2 nM on hA2a, 7.9 nM on hA2a/CHO (setting [3]), 52 nM at mA2a/CHO (setting [4]) and 32 nM on hA2b/CHO (setting [6]).

`CNCCOc1cccnc1CNC(=O)c1nc(-c2ccc3ncn(C)c3c2)c(-c2ccc(F)cc2)nc1N` [Example 115, 3-amino-5-(4-fluorophenyl)-6-(1-methyl-1H-1,3-benzodiazol-6-yl)-N-([3-[2-(methylamino)ethoxy]pyridin-2-yl]methyl)pyrazine-2-carboxamide]: the IC50 on hA2a stood at 6.9 nM; at hA2a/CHO (setting [3]), 3.2 nM.

Turning to `Cc1cnc2ccc(-c3nc(C(=O)NC[C@H]4CCCN4C)c(N)nc3-c3ccc(F)cc3)cn12` [Example 138, 3-amino-5-(4-fluorophenyl)-6-[3-methylimidazo[1,2-a]pyridin-6-yl]-N-[[(2R)-1-methylpyrrolidin-2-yl]methyl]pyrazine-2-carboxamide], the results for the IC50 at hA2a and on hA2a/CHO (setting [3]) were 2.2 nM and 7.1 nM, respectively.

Regarding `Cc1cnc2ccc(-c3nc(C(=O)NC[C@@H]4CCCN4C)c(N)nc3-c3ccc(F)cc3)cn12` [Example 139, (S)-3-amino-5-(4-fluorophenyl)-6-(3-methylimidazo[1,2-a]pyridin-6-yl)-N-((1-methylpyrrolidin-2-yl)methyl) pyrazine-2-carboxamide], the IC50 on hA2a worked out at 5.2 nM; at hA2a/CHO (setting [3]), 8.8 nM.

In the case of `Cc1cnc2ccc(-c3nc(C(=O)NCCC(=O)N4CCCC4)c(N)nc3-c3ncco3)cn12` [Example 217, 3-amino-6-(3-methylimidazo[1,2-a]pyridin-6-yl)-5-(oxazol-2-yl)-N-(3-oxo-3-(pyrrolidin-1-yl)propyl)pyrazine-2-carboxamide], the IC50 turned out to be 8.5 nM at hA2a/CHO (setting [3]), 8.3 nM at mA2a/CHO (setting [4]), 4790 nM in test [1] (setting [5]) and 594 nM on hA2b/CHO (setting [6]).

For `Cc1cnc2ccc(-c3nc(C(=O)NC45CC(C4)C5)c(N)nc3-c3ncco3)cn12` [Example 220, 3-amino-N-(bicyclo[1.1.1]pentan-1-yl)-6-(3-methylimidazo[1,2-a]pyridin-6-yl)-5-(oxazol-2-yl)pyrazine-2-carboxamide], the IC50 worked out at 1.7 nM at hA2a/CHO (setting [3]), 42 nM at mA2a/CHO (setting [4]), 4670 nM in test [1] (setting [5]) and 2100 nM on hA2b/CHO (setting [6]).

Regarding `Cc1cnc2ccc(-c3nc(C(=O)NC[C@@H]4CCN(C(=O)N(C)C)C4)c(N)nc3-c3ncco3)cn12` [Example 273, 3-amino-N-[[(3 S)-1-(dimethylcarbamoyl)pyrrolidin-3-yl]methyl]-6-[3-methylimidazo[1,2-a]pyridin-6-yl]-5-(1,3-oxazol-2-yl)pyrazine-2-carboxamide], the IC50 came to 1.5 nM at hA2a/CHO (setting [3]) and 1310 nM in test [1] (setting [2]).
